Earlier results in patent US12678402B2, “Treatment with powdered intranasal epinephrine” (Nasus Pharma Ltd., priority 2020, dated 2026).

AUC0-120 min (0.3 mg IM, listed as Epinephrine 0.3 mg IM): 18.3 ± 9.3 ng·min/mL
Cmax Mean (±SD) (5 mg IN): 0.386 ± 0.152 ng/mL
AUC0-120 min (5 mg IN, listed as intranasal epinephrine): 18.3 ng·min/mL
SMILES: CNC[C@H](O)c1ccc(O)c(O)c1 [Epinephrine]

Read-outs that look alike come from different tables or passages of the source.
